Measured values: patent publication US20100184668A1 (EMORY UNIVERSITY, published 2010)

Key:
[1] = target: T1, thrombospondin-1 (TSP1), secreted into conditioned medium of LN229 clone C9 (UniProt P07996); assay: GST pull-down from conditioned medium of LN229 clone C9, Western blot
T1 construct: Positive control in the GST pull-down
Experimental: (§1) FIG. 5C illustrates a GST pull-down assay. GST alone or the two recombinant GST-CD36 peptides were bound to glutathione sepharose beads and CM from LN229 glioma cells stably expressing Vstat120 (+lanes) or control cells (−lanes) were tested for protein interaction. A separate pull-down assay with CM from TSP1 expressing cells (LN229 clone C9) was used as a positive control. The bound proteins were eluted and analyzed for Vstat120 and TSP1 expression by western blot. Both the GST tagged CD36 containing recombinant peptides could pull down Vstat120 and TSP1 but not the purified GST. Positive control lanes are TCA precipitations of CM (collected serum-free after 96 hrs) that express either Vstat120 or TSP1.
(§2) The anti-angiogenic effects of TSP-1 and -2 mediated by their binding to CD36 on endothelial cells is dependent upon the binding of the TSR domain(s) to a conserved region within CD36 called the CLESH domain. The ability of Vstat120 to bind to recombinant CD36 CLESH domain peptides was tested. GST-tagged peptides spanning amino acids 5 to 143, and 67 to 157 of CD36 were expressed and purified in E. coli (FIGS. 5A and 5B). The indicated GST fusion proteins were tested for their ability to bind to TSP1. Briefly the indicated recombinant peptide bound to glutathione-sepharose beads was used to pull down TSP1 from CM of LN229 cells constitutively expressing TSP1 (clone C9). […]

[2] = target: T2, Vasculostatin 120 (Vstat120), myc/his-tagged, secreted into conditioned medium (human, UniProt O14514 33-926); assay: GST pull-down from conditioned medium of LN229 cells expressing Vstat120, Western blot
T2 construct: Used as unpurified conditioned medium: LN229 clone 13 (pcDNA3.1mychisVstat120) for the pull-down, transfected 293 cells for the migration and cornea assays; also called 120 kDa fragment of BAI1; not shown: myc/his tag of the pcDNA3.1 expression vector
T2 sequence: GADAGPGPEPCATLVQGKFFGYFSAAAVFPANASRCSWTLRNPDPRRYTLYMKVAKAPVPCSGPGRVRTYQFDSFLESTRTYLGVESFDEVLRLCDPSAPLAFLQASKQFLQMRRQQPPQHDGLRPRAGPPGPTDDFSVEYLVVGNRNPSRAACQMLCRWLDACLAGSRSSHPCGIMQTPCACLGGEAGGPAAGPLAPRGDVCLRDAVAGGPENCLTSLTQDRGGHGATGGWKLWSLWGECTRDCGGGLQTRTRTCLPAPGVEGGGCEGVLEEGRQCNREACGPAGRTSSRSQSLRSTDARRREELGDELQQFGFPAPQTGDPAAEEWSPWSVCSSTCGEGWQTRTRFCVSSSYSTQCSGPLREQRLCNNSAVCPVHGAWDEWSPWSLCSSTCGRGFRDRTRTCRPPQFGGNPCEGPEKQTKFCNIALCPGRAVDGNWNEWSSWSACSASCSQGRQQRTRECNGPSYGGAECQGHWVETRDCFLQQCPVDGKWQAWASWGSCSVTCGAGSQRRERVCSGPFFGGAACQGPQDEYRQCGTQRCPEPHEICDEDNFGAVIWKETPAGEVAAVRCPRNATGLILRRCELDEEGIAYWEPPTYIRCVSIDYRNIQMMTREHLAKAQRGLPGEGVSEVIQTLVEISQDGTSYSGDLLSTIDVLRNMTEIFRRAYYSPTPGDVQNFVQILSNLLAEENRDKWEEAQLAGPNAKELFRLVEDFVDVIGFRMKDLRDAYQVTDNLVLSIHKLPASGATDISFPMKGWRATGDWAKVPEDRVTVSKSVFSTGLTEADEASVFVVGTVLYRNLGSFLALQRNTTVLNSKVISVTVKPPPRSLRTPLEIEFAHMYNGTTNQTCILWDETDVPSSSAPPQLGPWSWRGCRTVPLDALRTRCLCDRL
Experimental: as §1, §2

B1: purified GST (glutathione S-transferase alone) (other, UniProt P08515 1-218, looked up)
chain: MSPILGYWKIKGLVQPTRLLLEYLEEKYEEHLYERDEGDKWRNKKFELGLEFPNLPYYIDGDVKLTQSMAIIRYIADKHNMLGGCPKERAEISMLEGAVLDIRYGVSRIAYSKDFETLKVDFLSKLPEMLKMFEDRLCHKTYLNGDHVTHPDFMLYDALDVVLYMDPMCLDAFPKLVCFKKRIEAIPQIDKYLKSSKYIAWPLQGWQATFGGGDHPPK
notes: Negative control in the pull-down; also called GST alone
B1: no binding [1]; no binding [2].
